Values of other authors, collected in publication PMC3479662 (Journal of medicinal chemistry, 2012).

Experiments:
A2AAR = conditions: read-out: Affinity Ki, A2A; human unless noted; ref Kim et al.[40]; cited from earlier work
A3AR = conditions: read-out: Affinity Ki, A3; human unless noted; ref de Zwaart et al.[38]; cited from earlier work

Row | Structure (SMILES) | Ki (A2AAR) | Ki (A3AR)
1 | NCCNC(=O)[C@H]1O[C@@H](n2cnc3c(N)ncnc32)[C@H](O)[C@@H]1O [Compound 11] | 46.1 µM | –
2 | Nc1ncnc2c1ncn2[C@@H]1O[C@H](C(=O)NC2CC2)[C@@H](O)[C@H]1O [Compound 16] | – | 0.108 µM
